Assay results published in article PMC9086916 (RSC Advances, 2018).

Test system: human liver microsomes
Format: in vitro ADME
Settings: trantinterol 50.0 μM, HLM 0.5 mg/mL, inhibitor at 1 to 10-fold of reported Ki

**Q.** For `C=C[C@H]1C[N@@]2CC[C@H]1C[C@@H]2[C@@H](O)c1ccnc2ccc(OC)cc12` [quinidine], which “Inhibition of the formation of M1” value is on record?
**A.** could only inhibit the formation of M1

**Q.** What about the “Inhibition of the formation of M2” value of the same compound?
**A.** no inhibition
